Molecules are shown by their SMILES.

For this test, the species on record is Homo sapiens. In words: Selectivity ratio of IC50 for NOD2 (unknown origin) to IC50 for NOD1 (unknown origin).

For the compound `Cc1ccc(S(=O)(=O)n2c(N)nc3ccccc32)cc1`, the Ratio IC50 is above 36.

The values above are taken from ChEMBL document CHEMBL3352342, “Nucleotide-binding oligomerization domain (NOD) inhibitors: a rational approach toward inhibition of NOD signaling pathway” (J Med Chem, 2014).
